These results are taken from published antibiotic growth screens (doi:10.1038/s41589-023-01349-8).

Some of the results follow.

The subject of the assay is A. baumannii ATCC 17978. The assay can be described thus: relative growth (fraction of control); higher = less inhibition. The note with it: 50 µM.
Take `O=C(C[C@@H]1CC[C@@H]2[C@H](COC[C@H](O)CN2S(=O)(=O)c2ccccc2)O1)N[C@@H]1CCN(Cc2ccccc2)C1`: the relative growth came out at 1.02.

Consider `NNC(=O)CNc1ccc2c(c1)OCO2`, for which the relative growth was 1.03.

`Cc1ccc(-c2cnc3c(c2)C(=O)N([C@H](C)CO)C[C@@H](C)[C@@H](CN(C)C(=O)Cc2cccnc2)O3)cc1` gave a relative growth of 1.14.

Molecule `O=C1NCCC[C@@H]1C(=O)N1CCCCC1` yielded a relative growth of 1.01.

In turn, `CNC(=O)c1ccc(N)cc1` yielded a relative growth of 0.943.

In the case of `NC(=O)NCc1ccccn1`, the relative growth is 0.923.

The molecule `Cc1cc2nc3c(=O)[nH]c(=O)nc-3n(C[C@H](O)[C@H](O)[C@H](O)CO)c2cc1C` yielded a relative growth of 0.867.

As for `O=C(CN1CCOCC1)NCC[C@H]1CC[C@H](NS(=O)(=O)c2ccc(F)cc2)[C@@H](CO)O1`, the relative growth came out at 1.05.

In turn, `C[C@H]1CN([C@@H](C)CO)C(=O)c2cc(C#Cc3ccccc3F)cnc2O[C@@H]1CN(C)C(=O)Cc1cccnc1` gave a relative growth of 0.896.

As to `Cn1cnc(S(=O)(=O)N2C[C@@H](O)COC[C@H]3O[C@H](CC(=O)NC4CCC4)CC[C@@H]32)c1`, the relative growth was 1.11.

Take `COc1ccc(S(=O)(=O)N[C@H]2CC[C@@H](CC(=O)N3CCN(c4ccccc4)CC3)O[C@@H]2CO)cc1`: the relative growth was 0.913.

The molecule `COc1ccc(S(=O)(=O)N2C[C@H](O)COC[C@@H]3O[C@@H](CC(=O)NCCN4CCCCC4)CC[C@H]32)cc1` registered a relative growth of 1.18.

`Cc1cc(C)n2nc(SCC(=O)O)nc2n1` had a relative growth of 1.08.

Consider `COc1cccc(NC(=O)N[C@@H]2CC[C@H](CC(=O)N3CCOCC3)O[C@@H]2CO)c1`, for which the relative growth is 1.04.

Take `C[C@H]1CN([C@@H](C)CO)S(=O)(=O)c2ccc(C#CC3(O)CCCC3)cc2O[C@@H]1CN(C)C(=O)Cc1cccnc1`: the relative growth is 1.12.

In turn, `C=CCC[C@@H](Cc1ccc(F)cc1)C(=O)OC[C@@H]1CCCN1C(=O)[C@H](CC=C)CC(=O)N(CCO)Cc1ccccc1` yielded a relative growth of 1.11.

The molecule `C[C@H](CO)N1C[C@H](C)[C@@H](CN(C)Cc2ccccc2)Oc2cc(C#Cc3ccccn3)ccc2S1(=O)=O` showed a relative growth of 1.27.

`O=C(NO)c1cccc(C(=O)N/N=C/[C@H](O)[C@@H](O)[C@H](O[C@@H]2O[C@H](CO)[C@H](O)[C@H](O)[C@H]2O)[C@H](O)CO)c1` showed a relative growth of 0.934.

With `CN(C)CCOC(c1ccccc1)c1ccccc1.Cn1c(=O)c2[nH]c(Cl)nc2n(C)c1=O`, the relative growth was 0.893.

The molecule `O=C(C[C@@H]1C=C[C@@H](NS(=O)(=O)c2ccc(F)cc2)[C@H](CO)O1)NCCN1CCCCC1` showed a relative growth of 0.961.

With `COc1cc(C)c(C(=O)Oc2cc(C)c(C(=O)O)c(O)c2C)c(OC)c1C`, the relative growth came out at 0.905.

`COCC1=C(C(=O)OC(C)OC(=O)OC(C)C)N2C(=O)[C@@H](NC(=O)/C(=N/OC)c3csc(N)n3)[C@H]2SC1` (stereo not given in full) had a relative growth of 1.27.

Turning to `Cc1cc(O)c2c(c1)C(=O)c1c(c(O)cc(O)c1-c1c(O)cc(O)c3c1C(=O)c1cc(C)cc(O)c1C3=O)C2=O`, the relative growth stood at 0.955.

In the case of `Cc1ccc(OCCN)c(Br)c1`, the relative growth stood at 0.8.

On to `Clc1ccc2c(c1)CCc1cccnc1C2=C1CCNCC1`, for which the relative growth came to 0.786.

Molecule `Cl.O=C(O)/C=C/c1ccc(Cn2ccnc2)cc1` had a relative growth of 1.03.

`CC(C)NNC(=O)c1ccncc1.O=P(O)(O)O` registered a relative growth of 0.896.

Molecule `Cc1csc2sc(COC(=O)Nc3ccccc3)c(C)c12` showed a relative growth of 1.02.

The molecule `CC(=O)O[C@H]1CC[C@]2(C)C3CC[C@]4(C)C(C(C)=O)=CC[C@H]4C3CC[C@H]2C1` (stereo partly drawn) [3-beta-ACETOXYALLOPREG-16-EN-20-ONE] yielded a relative growth of 1.22.

`CC[C@H](C)[C@H](N)C(=O)O` returned a relative growth of 1.04.

`CC(C)COC(=O)CNc1n[nH]c(=O)[nH]c1=O` yielded a relative growth of 1.12.

Take `Cc1noc(C)c1NC(=O)N[C@H]1C=C[C@@H](CC(=O)NCCCN(C)C)O[C@H]1CO`: the relative growth turned out to be 0.968.

Turning to `C[N+](C)(C)CCCCNC(=O)[C@H]1C[C@H]2C(=O)N[C@@H](Cc3ccccc3)C(=O)N2[C@H]1c1cccc(OCCO)c1`, the relative growth was determined as 0.918.

On to `C[C@@](Cc1ccc(O)c(O)c1)(NN)C(=O)O`, for which the relative growth is 1.08.

With `O=C1N[C@@H](Cc2c[nH]c3ccccc23)COC(=O)[C@H](Cc2ccc(F)cc2)CCC=CC[C@@H]1CC(=O)N(CCO)Cc1ccccc1`, the relative growth worked out at 1.11.

For `CCOc1nc2cccc(C(=O)O)c2n1Cc1ccc(-c2ccccc2-c2nnn[nH]2)cc1`, the relative growth is 0.868.

For `Cc1c(-c2ccccc2)n(C[C@@H](O)CN)c2ccccc12`, the relative growth is 0.765.

Molecule `Cc1ccnc(NC(=O)Cn2cnc3c2c(=O)n(C)c(=O)n3C)n1` returned a relative growth of 0.946.

Molecule `CNC(=O)CN1C(=O)[C@@H]2[C@@H](C1=O)[C@@H]1C=C[C@@H]2C1` yielded a relative growth of 0.912.

In the case of `CCN(CC)CCNc1nc(=O)[nH]nc1C`, the relative growth worked out at 1.02.

The molecule `O=C(O)[C@@H](S)[C@@H](S)C(=O)O` came in with a relative growth of 0.579.

In turn, `O=c1[nH]cnc2nc[nH]c12` registered a relative growth of 0.924.

Regarding `Nc1ncnc2c1ncn2[C@@H]1O[C@H](CO)[C@@H](O)[C@@H]1O`, the relative growth was determined as 1.1.

On to `COc1ccc(OCCC(=O)NN)cc1`, for which the relative growth turned out to be 1.01.

`C=CC[C@@H](CC(=O)N[C@H](CO)Cc1ccccc1)C(=O)N[C@H](C)COC(=O)[C@H](CC=C)CC(=O)OC(C)(C)C` showed a relative growth of 1.01.

`NNc1ccc2c(N)[nH]nc2c1`: the relative growth was 0.93.

`CCc1nnc(SCC(=O)OC)[nH]1` had a relative growth of 1.

`NC(CO)(CO)CO.O=C(c1ccccc1)c1ccc2n1CCC2C(=O)O` (stereo not given) gave a relative growth of 1.07.

With `CNCCC(Oc1ccc(C(F)(F)F)cc1)c1ccccc1.Cl` (stereo not given), the relative growth worked out at 1.11.

`C=CC[C@H](Nc1ccccc1C)c1ccc(Cl)cc1` returned a relative growth of 1.11.

For the molecule `CC(=O)N(O)CCCCCNC(=O)CCC(=O)N(O)CCCCCNC(=O)CCC(=O)N(O)CCCCCN.CS(=O)(=O)O`, the relative growth stood at 0.983.

As for `C[C@H]1CN([C@@H](C)CO)S(=O)(=O)c2ccc(C3=CCCC3)cc2O[C@@H]1CN(C)S(=O)(=O)c1cn(C)cn1`, the relative growth came out at 0.989.

In turn, `C[C@@H]1CN([C@H](C)CO)C(=O)c2cc(C#Cc3ccccn3)cnc2O[C@H]1CN(C)C(=O)c1cnccn1` came in with a relative growth of 1.05.

With `CC(C)(C)OC(=O)N1CC(=O)C1`, the relative growth turned out to be 1.04.

As for `O=S(=O)(OC[C@H]1O[C@@](COS(=O)(=O)[O][Al]([OH])[OH])(O[C@H]2O[C@H](COS(=O)(=O)[O][Al]([OH])[OH])[C@@H](OS(=O)(=O)[O][Al]([OH])[OH])[C@H](OS(=O)(=O)[O][Al]([OH])[OH])[C@H]2OS(=O)(=O)[O][Al]([OH])[OH])[C@@H](OS(=O)(=O)[O][Al]([OH])[OH])[C@@H]1OS(=O)(=O)[O][Al]([OH])[OH])[O][Al]([OH])[OH].[OH][Al]([OH])[OH].[OH][Al]([OH])[OH].[OH][Al]([OH])[OH].[OH][Al]([OH])[OH].[OH][Al]([OH])[OH].[OH][Al]([OH])[OH].[OH][Al]([OH])[OH].[OH][Al]([OH])[OH]`, the relative growth turned out to be 0.903.

The molecule `COC(=O)[C@@H]1[C@@H](c2ccc(OC)cc2)[C@H](C(=O)OC)S(=O)(=O)CS1(=O)=O` returned a relative growth of 1.09.

For the molecule `C(=C\N1CCN(C(c2ccccc2)c2ccccc2)CC1)/Cc1ccccc1`, the relative growth was determined as 0.904.

As for `O=C(N[C@@H]1CC=CC[C@H](CC(=O)N(CCO)Cc2ccccc2)C(=O)N[C@@H](Cc2ccccc2)COC1=O)OCC1c2ccccc2-c2ccccc21`, the relative growth amounted to 1.09.

In turn, `O=C(C[C@@H]1C=C[C@@H](NC(=O)C2CC2)[C@H](CO)O1)NCCCN1CCOCC1` showed a relative growth of 1.14.

As to `C[C@@H]1C(=O)O[C@H]2CC34[C@H]5CC(C(C)(C)C)C36[C@@H](OC(=O)[C@@H]6O)OC4(C(=O)O5)[C@]21O` (stereo not given in full), the relative growth was 0.924.

With `CCC1(c2ccccc2)C(=O)NCNC1=O`, the relative growth was found to be 1.23.

As for `O=C(O)CCCCCCCCCCCCC1C=CCC1` (stereo not given), the relative growth was found to be 1.35.

`Cc1noc(C)c1NC(=O)N(C)C[C@@H]1Oc2cc(C#CCN(C)C)ccc2S(=O)(=O)N([C@@H](C)CO)C[C@@H]1C`: the relative growth turned out to be 1.07.

As for `O=C(C[C@H]1C=C[C@H](NC(=O)CN2CCOCC2)[C@H](CO)O1)NCCc1ccncc1`, the relative growth stood at 1.15.

The molecule `C[C@@H]1CN([C@H](C)CO)S(=O)(=O)c2ccc(Br)cc2O[C@H]1CN(C)S(=O)(=O)c1ccccc1` returned a relative growth of 1.07.

On to `CNC(=O)c1ccc(OC(C)=O)cc1`, for which the relative growth was 1.04.

On to `C[C@@H]1CN([C@@H](C)CO)S(=O)(=O)c2ccc(C#CC3CCCC3)cc2O[C@H]1CN(C)Cc1cncnc1`, for which the relative growth was 1.01.

With `O=c1[nH]nc(N2CCOCC2)c(=O)[nH]1`, the relative growth came to 0.895.

Turning to `COc1cc(/C=C/C(=O)/C=C(O)/C=C/c2ccc(O)c(OC)c2)ccc1O`, the relative growth turned out to be 0.926.

Take `COc1cc2c(cc1OC)CN(C(=O)[C@@H]1[C@H]3C(=O)O[C@H](c4ccccc4)[C@H](c4ccccc4)N3[C@H](c3ccc(O)cc3)[C@@]13C(=O)Nc1ccccc13)CC2`: the relative growth worked out at 0.916.

For the molecule `O=c1[nH]c(=O)n(C2C[C@@H](O)[C@@H](CO)O2)cc1F` (stereo not given in full), the relative growth is 1.16.

`O=S1(=O)CC[C@H](S(=O)(=O)[C@H]2CCS(=O)(=O)C2)C1` gave a relative growth of 1.1.

In turn, `COCC#Cc1ccc2c(c1)O[C@@H](CN(C)S(=O)(=O)c1ccc(F)cc1)[C@H](C)CN([C@H](C)CO)S2(=O)=O` returned a relative growth of 0.878.

As to `c1ccc2c(CSc3nc4ccccc4o3)cccc2c1`, the relative growth amounted to 1.09.

`CO[C@@H]1CN(C)C(=O)c2cc(NS(=O)(=O)c3ccccc3)ccc2OC[C@H](C)N(C(=O)NC(C)C)C[C@@H]1C`: the relative growth was 0.996.

For `O=C1CC[C@@H](C(=O)N2CSC[C@H]2C(=O)O)N1`, the relative growth was 0.937.

As to `Oc1c(Cl)cc(Cl)c2cccnc12`, the relative growth was 0.571.

`c1ccc(-c2ccc(C(c3ccccc3)n3ccnc3)cc2)cc1` (stereo not given) came in with a relative growth of 1.14.

In turn, `COCC#Cc1ccc2c(c1)O[C@@H](CN(C)Cc1ccccc1F)[C@@H](C)CN([C@H](C)CO)S2(=O)=O` registered a relative growth of 0.745.

As for `O=C(C[C@@H]1C=C[C@@H](NC(=O)c2cccnc2)[C@@H](CO)O1)NCc1ccncn1`, the relative growth came out at 0.893.

Regarding `O=C(C[C@H]1CC[C@@H]2[C@H](COC[C@@H](O)CN2Cc2cc(F)ccc2F)O1)N[C@H]1CCN(Cc2ccccc2)C1`, the relative growth was 0.977.

In turn, `CCCC#Cc1ccc2c(c1)O[C@H](CN(C)S(=O)(=O)c1cccc(OC)c1)[C@@H](C)CN([C@H](C)CO)S2(=O)=O` displayed a relative growth of 1.37.

`NCC[C@H]1CC[C@@H](NC(=O)C2CC2)[C@H](CO)O1` yielded a relative growth of 0.989.

Take `O=C(C[C@H]1C=C[C@H](NC(=O)CN2CCOCC2)[C@H](CO)O1)NC1CCC1`: the relative growth was determined as 1.05.

Molecule `CNC[C@@H](O)CS(=O)(=O)c1ccccc1` showed a relative growth of 1.02.
